Results on one substance are retold here after patent EP0308983A2, “NMR imaging with Mn(II) coordination compositions” (priority 1987, dated 1989).

For data set [1], the system named is Rats. Conditions: IV, standard conditions, 10 animals per dosage group. From the text: The doses were 0.3, 0.5, and 0.8 mmole/kg. 10 Animals were used in each dosage group.
The test system of data set [2] is test population of animals.
Data set [3] concerns Rats. Conditions: doses of 0.1 mmol/kg, Mendonca-dias et al.; cited from earlier work.

On to Manganese chloride [MnCl₂], for which the LD₅₀ entry in data set [1] was “less than 0.2 mmole/kg”; in data set [2] (Table A, species and unit not given) it was 0.1. The “Safety Factor” value in data set [2] (ratio of LD₅₀ and dose for T₁ = 200) came out at 10. Besides, the lethality entry in data set [3] was “almost always lethal”.
